What was measured:
[1] = tested on: LI6669 human liver cancer orthotopic transplantation tumor; experiment: LI6669 human liver cancer orthotopic transplantation tumor model (PDX), survival; format: in vivo, BALB/c nude mouse; conditions: Group 7, 50 mg/kg Q4D i.p. for 28 days; solvent control 17 days
Excerpt: This example performs a pharmacodynamic evaluation of the test product, the recombination protein as shown in SEQ ID NO: 14, in a BALB/c male nude mouse model of orthotopic transplantation of liver cancer LI6669.
LI6669 is a HuPrime® orthotopic transplantation model originated from a patient's liver cancer. This model has a certain tendency of tumor collapse.
Tumor tissue was collected from a LI6669 tumor-bearing mouse, a HuPrime® orthotopic transplantation model of liver, and cut to tumor pieces with a diameter of 2-3 mm, which were inoculated into the upper left lobe of liver of a Balb/c nude mouse.
When the average tumor volume of the tumor-bearing mice reached about 50-150 mm^3, the mice were randomly grouped by weight according to Table 3 of “3. Design of Experiment”. The grouping day was set as Day 0, and the administration began on Day 1. […].
After tumor cell inoculation, route monitoring comprises the tumor growth and the effect of treatment on normal behaviors of animals, specially including the activity, food intake and water consumption, weight gain or loss, eyes, fur of experimental animals, and other abnormal conditions. The clinical symptoms observed during the experiments were all recorded in the original data. After drug administration, the mice were measured twice a week for their weights. […]

CR5043B organoid = experiment: PDXO organoid growth inhibition (CTG 3D), colorectal cancer CR5043B; format: cell-based; conditions: KRAS G13D, read Day 5
Description: (§1) • a) 20 μl of 100× Dispase solution was added in to a 6-well plate (containing 2 mL of organism culture medium), and organoid was collected from each well. b) The 6-well plate was returned into the incubator and cultured at 37° C. for 30 min. c) The organoid was collected from the 6-well plate, and transferred by a pre-wetted 100 μm filter into a 50 mL plastic tube. d) Once all the wells were filtered by 100 μm filter, the flow was filtered by a pre-wetting 20 μm filter. e) The 20 μm filter was inverted, and the organoid was collected in a new 50 mL tube. f) The organoid was collected and re-suspended in the corresponding culture medium. The organoid was calculated for their concentrations. g) The cell concentration was adjusted with the medium to an appropriate concentration. h) Matrigel was added to a final concentration of 5% v/v, and the organoid was suspended on ice. i) 40 μL of cell suspension was added with a Multidrop dispenser into a 384-well plate. […]
(§2) 40 μL of CTG 3D was added into each well by a Multidrop dispenser; the content was mixed on a plate oscillator for 5 min; and then the place was incubated at room temperature in dark for 30 min. The luminous signal was read on an Envision plate reader. […]

CR3099B organoid = experiment: PDXO organoid growth inhibition (CTG 3D), colorectal cancer CR3099B; format: cell-based; conditions: EGFR (p.R521K)/KRAS (p.G12D), read Day 5
Description: as §1, §2

CR5082B organoid = experiment: PDXO organoid growth inhibition (CTG 3D), colorectal cancer CR5082B; format: cell-based; conditions: BRAF V600E, read Day 5
Description: as §1, §2

Cetuximab
Median Survival [1]: 17 days | IC50 (CR5043B organoid): 277.853 µg/mL | Maximum Inhibition Rate (%) (CR5043B organoid): 93.67% | IC50 (CR3099B organoid): >500 µg/mL | Maximum Inhibition Rate (%) (CR3099B organoid): 47.57% | IC50 (CR5082B organoid): 459.8 µg/mL | Maximum Inhibition Rate (%) (CR5082B organoid): 90.92%

From patent US20240424071A1, “NOVEL MUTANT OF RECOMBINANT GANODERMA LUCIDUM IMMUNOMODULATORY PROTEIN AND USE THEREOF” (CHANGCHUN INTELLICROWN PHARMACEUTICAL CO., LTD., priority 2021, published 2024)
